Experimental findings from patent US6426222B1, “Method for inducing osteoblast differentiation of human extramedullary adipose tissue cells” (Bio Holdings International Limited, priority 1997, dated 2002) are described below.

Holding throughout (format): cell-based
Data set [1] relates to human extramedullary adipose tissue cells. Kind of data set: Alkaline phosphatase activity of treated cultures (para-nitrophenol phosphate substrate). The procedure: Adipose tissue biopsies were taken during plastic surgery of the abdomen on healthy patients, of ages of from 25 to 50.
The tissues taken were sliced thinly into small fragments and digested for 90 minutes with collagenase (2 mg/ml) in a Krebs Ringer buffer at 37° C. Filtering was performed on a screen having a pore size of 100 μm, the filtrate was recovered, and centrifuged at 1000 revolutions per minute (rpm) for 5 min. The supernatant was removed and the pellet was washed several times in Krebs Ringer buffer. The washing and centrifuging steps were repeated several times and on each occasion the supernatant containing mature adipocytes was removed. The resulting cells were suspended in DME/F12 (Sigma Chemical Co., St. Louis, Mo. USA; reference D-6905) culture medium containing 10% fetal calf serum, 100 μg/ml streptomycin, and 100 U/ml penicillin. […]
Alkaline phosphatase activity was determined by using para-nitrophenol phosphatase as a substrate, using the technique described by L. Lecoeur and J. P. Ouhayoun, Biomaterials 18, 989-993 (1997). The quantity of para-nitrophenol formed upon hydrolysis of the substrate was determined by measuring the absorbance at 410 nm, which was converted into nanomoles of enzyme using a calibration curve established on the basis of known concentrations of para-nitrophenol.

Data set [2] has the same test system. Description: In situ cytoenzymatic (histochemical) detection of alkaline phosphatase on fixed cell cultures. As to conditions: cultures fixed with formol after 30 days of treatment.
For data set [3] the test system is unchanged. Kind of data set: Type I collagen immunofluorescence on fixed cells. Particulars: 30 days of treatment.
For data set [4] the test system is unchanged. Description: In vitro mineralization of the extracellular matrix (von Kossa stain). As to conditions: after 45 days.
The test system is the same in data set [5]. Kind of data set: Examination of the cells under a scanning electron microscope.
The test system is the same in data set [6]. Description: Osteocalcine immunofluorescence on fixed cells.

For “rhBMP2: recombinant human BMP2 supplied by Genetic Institute, added at 200 ng/ml”, the “alkaline phosphatase activity relative to control cultures” value in data set [1] (in most cases, even after 35 days of incubation) was “less than or equal to the activity present in the control cultures”. The “alkaline phosphatase activity (in words)” value in data set [1] (treatment added at confluence, media renewed every 3 days) is recorded as “did not present a strong alkaline phosphatase activity”. The “cells with positive alkaline phosphatase activity (cytoenzymatic test)” value in data set [2] is given as “only a small proportion of cells that were positive for alkaline phosphatase”. Further, in data set [3], the “reaction with anti-type I collagen antibody (fluorescence)” value is listed as “reacted little with that antibody”. In addition, the points of mineralization result in data set [4] is “no points of mineralization would be detected”. Besides, the “appearance of cells under scanning electron microscope” value in data set [5] is “more elongate in shape”. Besides, the “response to anti-osteocalcine antibody (fluorescent marking)” value in data set [6] is listed as “responded very weakly”.
